Assay: Photostability/photodegradation test in water (Soret band, UV-visible spectrometry)
Conditions: weedkiller solution in water

## zinc tetra(N-methylpyridyl)porphyrin tetrachloride [Zn-TMPyP]
  half-life in water when exposed to light: two

— patent US12616204B2, “Use of cationic porphyrins as selective herbicide” (UNIVERSITE DE LIMOGES, priority 2021, dated 2026)
